Assay: Serum stability of crosslinked-UBI
Assay type: in vitro ADME
Conditions: human serum ∼20% diluted in PBS 7.4, 37 °C
Outline: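 The linear comparator is the same sequence with added N- and C-terminal Cys. Its Cys thiols were alkylated with iodoacetamide to prevent oxidative cyclization in physiological buffer.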

For `CSCC[C@@H]1NC(=O)[C@H](CCCNC(=N)N)NC(=O)[C@H](CCCNC(=N)N)NC(=O)[C@H](CCCCN)NC(=O)[C@H](C)NC(=O)[C@H](CCCNC(=N)N)NC(=O)CNC(=O)[C@H]([C@@H](C)O)NC(=O)[C@@H]2CSC3c4cc(ccc4[B-](O)(O)[NH+]32)CNC(=O)CSC[C@@H](C(N)=O)NC(=O)CNC(=O)[C@H](CCCNC(=N)N)NC(=O)[C@H](CCCNC(=N)N)NC(=O)[C@H](CC(N)=O)NC(=O)[C@H](Cc2ccc(O)cc2)NC(=O)[C@H](CCC(N)=O)NC1=O` [Cyclic UBI], the “Half-life in human serum relative to the linear precursor (linear UBI)” value was 10 fold.

Source: paper PMC11320178 (Chemical Science, 2024)
